# Experimental data: patent publication US4757082A, “Method of inhibiting aromatase” (Eli Lilly and Company, priority 1984, dated 1988)
# Where a name gives a salt, the structure may show the parent alone.
# Target: T1, aromatase (Rattus norvegicus, UniProt P22443)
# T1 construct: ovarian microsomes are obtained from rats treated with pregnant mares serum gonadotropin; from tissue; host or cells: ovarian microsomes from rats treated with pregnant mares serum gonadotropin
# T1 sequence (P22443 1-508): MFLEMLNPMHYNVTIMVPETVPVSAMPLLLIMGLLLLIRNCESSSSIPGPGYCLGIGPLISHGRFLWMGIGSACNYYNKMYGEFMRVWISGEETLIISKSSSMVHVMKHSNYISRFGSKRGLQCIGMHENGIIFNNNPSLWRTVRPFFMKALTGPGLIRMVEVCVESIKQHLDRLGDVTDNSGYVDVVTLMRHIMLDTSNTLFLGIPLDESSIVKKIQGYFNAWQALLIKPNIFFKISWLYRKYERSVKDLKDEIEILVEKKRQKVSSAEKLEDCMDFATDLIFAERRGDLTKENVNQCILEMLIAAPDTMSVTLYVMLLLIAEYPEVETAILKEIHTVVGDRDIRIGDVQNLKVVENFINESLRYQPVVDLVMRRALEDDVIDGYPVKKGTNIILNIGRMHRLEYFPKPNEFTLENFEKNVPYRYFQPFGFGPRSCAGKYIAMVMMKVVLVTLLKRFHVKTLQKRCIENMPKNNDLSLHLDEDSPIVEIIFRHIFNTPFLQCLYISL
# Test: Aromatase inhibition in the rat ovarian microsome assay
# Assay type: biochemical
# Settings: rat ovarian microsomes; substrate (androstenedione) concentration 0.1 μM
smiles,measurement,value
c1ccc2c(c1)-c1ccccc1C2n1ccnc1 [1-(9H--fluoren-9-yl)-1H--imidazole hydrochloride],EC50,210 nM
